Where two headings read alike, the source gives them in different places.
Assays:
[1] = biological target: DR4Dw14 HLA-DR molecules; assay: HLA-DR peptide binding assay (competition with biotinylated marker peptide), DR4Dw14; parameters: species or system human; conditions: pH = 5, 50 nM biotin-spacer-IHA(307-319)F marker peptide
[2] = biological target: T1, DR4Dw4 (DRB1*0401) HLA-DR molecules (Homo sapiens, UniProt P01903+P01911, A100K/A169T/F76Y/I96L/K127E/L162R/M171V/N62H/P40V/Q125Y/R42H/S133A/S149N/S66Y/V115G/V209L/W38E); assay: HLA-DR peptide binding assay (competition with biotinylated marker peptide), DR4Dw4; conditions: pH = 5, 50 nM biotin-spacer-IHA(307-319)F marker peptide; DOT Blot, densitometer; read-out: ^R IC50, DR4Dw4, DOT Blot
T1 construct: endogenous in cells; host or cells: BSM, EBV-transformed B-cell line

[3] = test system: PBMC from RA patients; assay: Proliferative responses of PBMC from RA patients (3H-thymidine); type: cell-based, human; conditions: 10% autologous serum
Procedure: Peripheral blood mononuclear cells (PBMC) from patients who were diagnosed as suffering from RA according to the American Rheumatism Association (ARA) criteria (Arnett et al., Arthritis Rheum. 31:315, 1988) were collected.
(§1) PBMC obtained from heparinized venous peripheral blood were isolated by standard centrifugation on a Ficoll-Paque gradient. […] Cultures were incubated in a total volume of 210 μl for 7 days at 37° C. in a humidified atmosphere of 5% CO2. Cultures were pulsed during the last 18 hours with 0.25 μCi^3 H-thymidine.

[4] = test system: PBMC from healthy donors; assay: Proliferative responses of PBMC from healthy donors (3H-thymidine); type: cell-based, human; conditions: 10% autologous serum
Procedure: PBMC's from healthy donors carrying the DR4Dw4 (DRB1*0401) or the DR1 specificity were collected as a control.
as §1

[5] = DOT Blot, densitometer, read-out: ^R IC50, DR4Dw14, DOT Blot

## CC(C)C[C@H](NC(=O)[C@@H](NC(=O)[C@H](Cc1ccccc1)NC(=O)[C@H](CO)NC(=O)[C@H](CCCNC(=N)N)NC(=O)CNC(=O)[C@H](Cc1ccccc1)NC(=O)[C@@H](NC(=O)[C@@H]1CCCN1)[C@@H](C)O)[C@@H](C)O)C(=O)N[C@@H](C)C(=O)N[C@@H](CO)C(=O)N[C@@H](CO)C(=O)N[C@@H](CCC(=O)O)C(=O)O [Peptide 1]
[1]; [5]
  IC50: 1950 nM
[1]; SDS-PAGE, visual inspection, read-out: ^R IC50, DR4Dw14, SDS-PAGE
  IC50: 2500 nM

## CC[C@H](C)[C@H](NC(=O)[C@H](CCCCN)NC(=O)[C@H](CO)NC(=O)[C@H](Cc1ccccc1)NC(=O)[C@H](CCCNC(=N)N)NC(=O)[C@H](CCC(N)=O)NC(=O)[C@@H](N)CO)C(=O)N[C@@H](C)C(=O)N[C@@H](CO)C(=O)N[C@@H](CC(N)=O)C(=O)N[C@H](C(=O)N[C@@H](CCC(N)=O)C(=O)N[C@@H](CO)C(=O)N[C@@H](CCCNC(=N)N)C(=O)O)[C@@H](C)O [Peptide 4]
[2]
  IC50: 80 nM
[1]; [5]
  IC50: 400 nM
[3]; RA patient 191-03 (HR), disease state IV, peptide 10 μg/l
  Proliferative response, stimulation index (SI): < 2
[3]; RA patient 191-03 (HR), disease state IV, peptide 100 μg/l
  Proliferative response, stimulation index (SI): < 2
[3]; RA patient 272-0 (HR), disease state III-IV, peptide 10 μg/l
  Proliferative response, stimulation index (SI): < 2
[3]; RA patient 272-0 (HR), disease state III-IV, peptide 100 μg/l
  Proliferative response, stimulation index (SI): 6
[3]; RA patient 273-0 (HR), disease state IV, peptide 10 μg/l
  Proliferative response, stimulation index (SI): 3
[3]; RA patient 273-0 (HR), disease state IV, peptide 100 μg/l
  Proliferative response, stimulation index (SI): 29
[3]; RA patient 275-0 (HR), disease state III, peptide 10 μg/l
  Proliferative response, stimulation index (SI): < 2
[3]; RA patient 275-0 (HR), disease state III, peptide 100 μg/l
  Proliferative response, stimulation index (SI): 5
[3]; RA patient 276-0 (HR), disease state IV, burnt out, peptide 10 μg/l
  Proliferative response, stimulation index (SI): 1
[3]; RA patient 276-0 (HR), disease state IV, burnt out, peptide 100 μg/l
  Proliferative response, stimulation index (SI): < 2
[3]; RA patient 280-0 (HR), disease state IV, burnt out, peptide 10 μg/l
  Proliferative response, stimulation index (SI): < 2
[3]; RA patient 280-0 (HR), disease state IV, burnt out, peptide 100 μg/l
  Proliferative response, stimulation index (SI): 2
[4]; healthy donor 156-03 (NR), peptide 10 μg/ml
  Proliferative response, stimulation index (SI): < 1
[4]; healthy donor 156-03 (NR), peptide 100 μg/ml
  Proliferative response, stimulation index (SI): < 2
[4]; healthy donor 157-04 (R), peptide 10 μg/ml
  Proliferative response, stimulation index (SI): 1
[4]; healthy donor 157-04 (R), peptide 100 μg/ml
  Proliferative response, stimulation index (SI): 1
[4]; healthy donor 168-03 (NR), peptide 10 μg/ml
  Proliferative response, stimulation index (SI): 1
[4]; healthy donor 168-03 (NR), peptide 100 μg/ml
  Proliferative response, stimulation index (SI): < 1
[4]; healthy donor 237-01 (NR), peptide 10 μg/ml
  Proliferative response, stimulation index (SI): < 1
[4]; healthy donor 237-01 (NR), peptide 100 μg/ml
  Proliferative response, stimulation index (SI): < 1
[4]; healthy donor 238-01 (NR), second line so labelled, peptide 10 μg/ml
  Proliferative response, stimulation index (SI): 1
[4]; healthy donor 238-01 (NR), second line so labelled, peptide 100 μg/ml
  Proliferative response, stimulation index (SI): < 1
[4]; healthy donor 241-01 (R), peptide 10 μg/ml
  Proliferative response, stimulation index (SI): < 1
[4]; healthy donor 241-01 (R), peptide 100 μg/ml
  Proliferative response, stimulation index (SI): < 1
